## Antibody variant affinities, Ab-14 heavy chain, assay 1

The measurements come from Engelhart et al. 2022 (doi:10.1038/s41597-022-01779-4) through the FLAb antibody collection.

Binding partner: SARS-CoV-2 spike HR2 peptide, sequence PDVDLGDISGINAS.

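The starting antibody came from a phage panning campaign against this peptide. Variants in AAYL49 differ from the parent at up to three CDR positions; double and triple changes were sampled at random. The assay is AlphaSeq: two haploid yeast populations carry antibody and antigen on their surface. After mating in shaken culture at 30 °C for 16 h, diploids were selected and their barcode pairs sequenced. Scores were corrected for input abundance and mapped to Kd with protein pairs of known affinity run in the same pool. The assay was run in three technical replicates.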

Ab-14 is the parent antibody, in scFv form: VH, then a (GGGGS)3 linker, then VL. The light chain is unchanged in all variants.
VH: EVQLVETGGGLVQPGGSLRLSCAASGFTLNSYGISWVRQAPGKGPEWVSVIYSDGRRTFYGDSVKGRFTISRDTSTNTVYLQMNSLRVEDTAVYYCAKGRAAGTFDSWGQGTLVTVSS
VL: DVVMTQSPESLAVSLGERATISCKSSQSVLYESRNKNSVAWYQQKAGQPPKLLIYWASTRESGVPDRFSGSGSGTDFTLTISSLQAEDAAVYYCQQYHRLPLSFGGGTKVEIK

Substitutions are numbered in sequence along the VH above, starting at 1 (not Kabat).
All variants listed here change S107 of the VH, counted from its first residue.
The Kd shown is the geometric mean over detected replicates; a lower Kd is a better binder.
"nd" marks a missing value. The strain was present, yet no cells mated with the target were sequenced in any replicate, which points to weak or no binding.
In this assay the parent's reference entry averaged 4.4 nM; its copy inside this library read 13 µM (one replicate of three).
Background: pairings of library AAYL49 with three empty control strains gave a value in 15% of cases (median 11 µM, 5th percentile 680 nM). Values in that range, when seen in few replicates, are hard to tell from nonspecific mating.

- G33N/S35H/S107N = 140 µM (2 of 3 replicates)
- S31T/S53R/S107M = 35 µM (2 of 3 replicates)
- S35R/G55Q/S107K = nd (0 of 3 replicates)
- I51G/F105S/S107W = nd (0 of 3 replicates)
- N30Y/S107V = 91 nM (3 of 3 replicates)
- V50A/R100I/S107M = nd (0 of 3 replicates)
- F27W/T58H/S107L = 9.9 µM (1 of 3 replicates)
- G26E/F105P/S107Y = nd (0 of 3 replicates)
- S31Y/G55R/S107H = 13 µM (2 of 3 replicates)
- F27R/Y32D/S107L = nd (0 of 3 replicates)
- I34T/T58P/S107N = nd (0 of 3 replicates)
- G33L/D62C/S107A = 580 nM (1 of 3 replicates)
- I34F/A102L/S107V = nd (0 of 3 replicates)
- F27N/Y60R/S107M = nd (0 of 3 replicates)
- V64G/A101V/S107I = nd (0 of 3 replicates)
- K65E/G99S/S107F = nd (0 of 3 replicates)
- D54N/F105M/S107V = 4.5 µM (1 of 3 replicates)
- I34L/S63R/S107A = 25 µM (1 of 3 replicates)
- Y52E/R57A/S107W = nd (0 of 3 replicates)
- R100H/S107A = 8.1 nM (3 of 3 replicates)
- L29R/Y60K/S107D = nd (0 of 3 replicates)
- G26D/I34Y/S107E = nd (0 of 3 replicates)
- S35F/T104D/S107C = nd (0 of 3 replicates)
- F59K/S107Q = 1.7 µM (2 of 3 replicates)
- L29G/V64Y/S107Q = 500 nM (3 of 3 replicates)
- T28S/Y60E/S107D = 55 nM (3 of 3 replicates)
- S107G = 180 nM (3 of 3 replicates)
- D54T/S107A = 9.5 µM (1 of 3 replicates)
- G61H/A102L/S107A = 4.1 µM (3 of 3 replicates)
- R56I/F105I/S107C = nd (0 of 3 replicates)
- I51Y/Y52D/S107L = nd (0 of 3 replicates)
- G103K/T104R/S107V = 3.2 nM (3 of 3 replicates)
- I34H/R56H/S107D = nd (0 of 3 replicates)
- T28E/R100C/S107E = 1.1 µM (3 of 3 replicates)
- F27H/V64W/S107F = nd (0 of 3 replicates)
- G26I/G99F/S107K = nd (0 of 3 replicates)
- S53F/D54H/S107W = nd (0 of 3 replicates)
- D54S/A101R/S107H = 2.4 µM (1 of 3 replicates)
- A101N/F105G/S107V = 12 nM (3 of 3 replicates)
- R57I/K65Y/S107W = nd (0 of 3 replicates)
- F27G/G61E/S107R = 1.1 µM (3 of 3 replicates)
- G55D/S63D/S107Y = 890 nM (1 of 3 replicates)

Extract of 5 entries:

changes	Kd	replicates with signal
D54N/F105M/S107V	4.5 µM	1 of 3
T28E/R100C/S107E	1.1 µM	3 of 3
G33N/S35H/S107N	140 µM	2 of 3
D54T/S107A	9.5 µM	1 of 3
R57I/K65Y/S107W	nd	0 of 3